In patent US9744150B2, “Suspension containing micronized benzoyl peroxide” (Dow Pharmaceutical Sciences Inc., priority 2009, dated 2017):

Assay: surface tension by Du Noüy ring method, Krüss K20 EasyDyne tensiometer
Assay type: physicochemical
Conditions: room temperature
Description: As used herein, the term “surface tension” refers to the force required to increase the unit area of a surface of a liquid or of an interface between two liquids or between a liquid and a gas, generally stated in units of dynes/cm. Surface tensions described herein are measured by the Du Noüy ring method utilizing an EasyDyne tensiometer model K20 marketed by Krüss USA, Matthews, N.C.
Surface tension of a fluid containing water was determined prior to and after mixing with various concentrations of various water soluble organic solvents in water. The water soluble organic solvents tested were: propylene glycol (Spectrum Chemicals, Gardena, Calif.), ethanol (Alfa Aesar, Ward Hill, Mass.), hexylene glycol (Ruger Chemicals, Linden, N.J.), ethoxydiglycol (Gattefossé USA, Paramus, N.J.), polyethylene glycol 400 (PEG 400) (Croda USA, Edison, N.J.), dimethyl isosorbide (DMI) (Croda, USA, Edison, N.J.) and glycerin (Spectrum Chemicals, Gardena, Calif.) as well as polyethylene glycol 200 NF (PEG 200) (Alfa Aesar, Ward Hill, Mass.), propylene carbonate (Spectrum Chemicals, Gardena Calif.), isopropyl alcohol (Spectrum Chemicals, Gardena Calif.), 1,3-propanediol (Spectrum Chemicals, Gardena Calif.) and polypropylene glycol (PPG-9) (Spectrum Chemicals, Gardena Calif.). The study was performed at room temperature utilizing a Kruss Surface Tensiometer, Model K20 EasyDyne (Kruss USA, Matthews, N.C.) and the results are shown in Table 4. Values for surface tension are in dynes/cm.

Substance: hexylene glycol [Hexylene Glycol NF]
- Surface tension (1.0 % w/w solvent in water): 60.1 dynes/cm
- Surface tension (2.5 % w/w solvent in water): 54.2 dynes/cm
- Surface tension (5 % w/w solvent in water): 48.9 dynes/cm
- Surface tension (7.5 % w/w solvent in water): 45.5 dynes/cm
- Surface tension (10 % w/w solvent in water): 43.0 dynes/cm
- Surface tension (12.5 % w/w solvent in water): 41.1 dynes/cm
- Surface tension (15.0 % w/w solvent in water): 39.4 dynes/cm
- Surface tension (17.5 % w/w solvent in water): 37.8 dynes/cm
- Surface tension (20 % w/w solvent in water): 36.5 dynes/cm
- Surface tension (22.5 % w/w solvent in water): 35.5 dynes/cm
- Surface tension (25 % w/w solvent in water): 34.7 dynes/cm
- Surface tension (100 % w/w solvent): 28.6 dynes/cm
